Laboratory results published in patent US4481192A, “Acid-protease inhibiting peptide derivatives” (SANOFI, priority 1982, dated 1984).
Like-named read-outs stand apart in the source and are kept apart here.

The chains behind the UniProt entries cited, without tags or fusion partners. Residues count along the entry.
UniProt P00797, 67-406: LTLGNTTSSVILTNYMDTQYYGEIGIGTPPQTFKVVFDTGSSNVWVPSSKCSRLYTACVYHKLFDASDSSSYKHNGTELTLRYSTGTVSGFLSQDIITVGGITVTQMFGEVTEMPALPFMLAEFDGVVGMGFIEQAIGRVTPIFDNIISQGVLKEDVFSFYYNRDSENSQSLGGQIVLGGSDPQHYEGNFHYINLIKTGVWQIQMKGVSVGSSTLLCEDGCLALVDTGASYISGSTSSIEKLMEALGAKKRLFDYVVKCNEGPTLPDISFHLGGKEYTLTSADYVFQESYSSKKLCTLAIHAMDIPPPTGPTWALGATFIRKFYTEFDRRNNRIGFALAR

Target: T1, human plasma renin activity (Homo sapiens, UniProt P00797)
T1 construct: the human plasma contain and the substrate: angiotensinogen, and the enzyme: renin; from tissue; host or cells: pool of human plasma
Test: Inhibition of the human plasma renin activity (P.R.A.)
Format: biochemical
Conditions: 37° C., pool of human plasma
Protocol: The angiotensin I released during the reaction (the human plasma contain and the substrate: angiotensinogen, and the enzyme: renin) is measured by radioimmunological determination using a kit.
Of course, an inhibitor of the enzyme for conversion of the PMSF (phenylmethylsulphonyl fluoride) is added to the incubation medium.
Two types of experiments were carried out:
one at pH 6, which is the optimum pH for the enzyme reaction with human renin (maleate buffer, incubation: 30 minutes), and
the other at pH 7.4, which is the physiological pH (phosphate buffer, incubation: 60 minutes).
A 10^-3 M stock solution of the peptide is made up in a mixture containing equal volumes of a solution A (19 ml of methanol+1 ml of acetic acid) and a solution B (4 ml of methanol+2 ml of sodium hydroxide solution).
The subsequent dilutions of the peptide are then prepared in the appropriate buffer in accordance with the procedures described above.

[1] = pH 7.4, phosphate buffer, incubation 60 minutes, read-out: INHIBITION OF HUMAN P.R.A. (IC50) pH 7.4

IC50 [1]	IC50 (pH 6, maleate buffer, incubation 30 minutes, read-out: INHIBITION OF HUMAN P.R.A. (IC50) pH 6)	Structure (SMILES)
190 nM	–	CC(C)CC(=O)N[C@@H](Cc1ccccc1)C(=O)N[C@@H](Cc1ccccc1)C(=O)N[C@@H](CC(C)C)[C@@H](O)CC(=O)N[C@@H](C)C(=O)N[C@@H](CC(C)C)[C@@H](O)CC(N)=O [SR 42238, iVa--Phe--Phe--Sta--Ala--Sta--NH2]
10000 nM	300 nM	COC(=O)C[C@H](O)[C@H](CC(C)C)NC(=O)[C@H](C)NC(=O)C[C@H](O)[C@H](CC(C)C)NC(=O)[C@@H](NC(=O)[C@@H](Cc1ccccc1)NC(=O)OC(C)(C)C)C(C)C [SR 41377, Boc--(D)Phe--Val--Sta--Ala--Sta--OCH3]
150 nM	–	COC(=O)C[C@H](O)[C@H](CC(C)C)NC(=O)[C@H](C)NC(=O)C[C@H](O)[C@H](CC(C)C)NC(=O)[C@H](Cc1c[nH]c2ccccc12)NC(=O)[C@H](Cc1c[nH]c2ccccc12)NC(=O)OC(C)(C)C [SR 41376, Boc--Trp--Trp--Sta--Ala--Sta--OMe]
